Patent US8404740B2, “Spirocyclic cyclohexane compounds” (dated 2013)

By UniProt entry, the sequences of proteins in these tests, tags left out. Where a name states a change or a piece, a line headed by the entry shows the natural chain unless it says otherwise.
UniProt P35372, whole entry, looked up: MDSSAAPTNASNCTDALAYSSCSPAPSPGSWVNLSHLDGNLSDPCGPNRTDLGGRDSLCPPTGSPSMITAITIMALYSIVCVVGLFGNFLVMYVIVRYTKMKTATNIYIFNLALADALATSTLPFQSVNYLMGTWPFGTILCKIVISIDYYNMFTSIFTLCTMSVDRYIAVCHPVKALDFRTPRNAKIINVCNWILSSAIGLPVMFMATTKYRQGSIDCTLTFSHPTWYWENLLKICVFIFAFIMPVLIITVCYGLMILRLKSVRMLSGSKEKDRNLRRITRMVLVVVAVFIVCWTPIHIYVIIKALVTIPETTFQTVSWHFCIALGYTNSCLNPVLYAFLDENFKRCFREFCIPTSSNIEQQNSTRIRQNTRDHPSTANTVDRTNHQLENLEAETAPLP
UniProt P41146: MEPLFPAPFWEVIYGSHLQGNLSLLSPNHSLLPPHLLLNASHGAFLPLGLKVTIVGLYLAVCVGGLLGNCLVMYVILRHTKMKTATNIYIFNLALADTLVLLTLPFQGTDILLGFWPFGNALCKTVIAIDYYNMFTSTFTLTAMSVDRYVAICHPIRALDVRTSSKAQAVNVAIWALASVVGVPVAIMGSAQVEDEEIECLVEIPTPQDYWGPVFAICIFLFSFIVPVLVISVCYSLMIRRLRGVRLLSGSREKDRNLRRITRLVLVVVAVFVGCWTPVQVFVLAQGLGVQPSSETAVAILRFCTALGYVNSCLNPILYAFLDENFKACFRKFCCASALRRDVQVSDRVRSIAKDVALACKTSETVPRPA

What was measured:
[1] = molecular target: human μ-opiate receptor (Homo sapiens, UniProt P35372); test: Measurement of μ binding ([3H]-naloxone, CHO-K1 membrane preparation); settings: test substance 1 μmol/liter
[2] = molecular target: ORL1 receptor (Homo sapiens, UniProt P41146); test: Measurement of ORL1 binding (3H-nociceptin/orphanin FQ, membranes of recombinant CHO-ORL1 cells); settings: c=1 μM
[3] = test system: rat; test: Tail-flick test carried out analogously on rats; settings: i.v.

Compound | μ % inhibition [1 μM] [1] [%] | further results
CCCCC1(N2CCN(C)CC2)CCC2(CC1)OCCc1c2[nH]c2ccc(F)cc12 (centres unmarked) | 34 | 
CCCCC1(N2CCCC2)CCC2(CC1)OCCc1c2[nH]c2ccc(F)cc12 (centres unmarked) |  | ORL1 % inhibition [1 μM] [2]: 47%
CCCCC1(N2CCOCC2)CCC2(CC1)OCCc1c2[nH]c2ccc(F)cc12 (centres unmarked) | 36 | 
CCCCC1(N(C)C)CCC2(CC1)OCCc1c2[nH]c2ccc(F)cc12 (single isomer, unassigned) |  | Tail-flick Rat ED50 [3]: Rat ED50 = 11 μg/kg
C=CCC1(NCc2ccc(OC)cc2)CCC2(CC1)OCCc1c2[nH]c2ccc(F)cc12 (centres unmarked) | 53 | 
